Measured values from patent US8445542B2, “Methods of accelerating muscle growth, decreasing fat deposits and improving feed efficiency in livestock animals” (Bridge Pharma, Inc., priority 2006, dated 2013).

Tests used:
[1] = system: adrenergic beta-receptors; assay: Receptor binding studies, adrenergic beta-receptors
Description: Interesting and important advantages of receptor selectivity by RR-ractopamine were found.

[2] = system: Airway smooth muscle tissues; assay: Airway smooth muscle contracted by carbachol; conditions: ongoing studies
Description: Airway smooth muscle tissues were contracted by carbachol. The inhibitory effects of isomers, enantiomeric pairs and a racemic mixture of ractopamine are being investigated.
Test results from these functional studies verify and support the results from the receptor binding studies.

RR-4-hydroxy-a-[[[3-(4-hydroxyphenyl)-1-methylpropyl]amino]methyl]benzenemethanol [RR-ractopamine]
affinity for adrenergic beta-receptors, compared among the ractopamine forms [1]: highest affinity | airway smooth muscle relaxing activity [2]: potent airway smooth muscle relaxing activity
